Test results published in article PMC3009740 (PLoS ONE, 2010).

Protein sequences, listed by entry. Tags and fused reporters are not part of them.
UniProt P08482, whole entry, stated change not applied: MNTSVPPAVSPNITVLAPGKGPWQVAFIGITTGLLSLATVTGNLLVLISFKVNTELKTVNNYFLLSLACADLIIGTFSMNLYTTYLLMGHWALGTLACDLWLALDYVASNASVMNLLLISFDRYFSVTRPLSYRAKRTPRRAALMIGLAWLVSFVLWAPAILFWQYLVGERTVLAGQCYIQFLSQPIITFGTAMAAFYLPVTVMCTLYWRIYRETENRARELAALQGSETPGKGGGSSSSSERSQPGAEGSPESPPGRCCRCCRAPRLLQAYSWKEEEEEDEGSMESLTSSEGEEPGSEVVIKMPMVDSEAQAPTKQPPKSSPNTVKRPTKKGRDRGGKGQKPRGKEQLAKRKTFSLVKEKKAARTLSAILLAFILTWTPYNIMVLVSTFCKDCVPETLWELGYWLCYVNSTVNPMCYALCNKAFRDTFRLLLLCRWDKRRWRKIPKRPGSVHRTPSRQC

How the values were obtained:
[1] = target: T1, rat M1 mutant^123 muscarinic acetylcholine receptor (Rattus norvegicus, UniProt P08482); conditions: mutant^123 cells stimulated with agonist (data not shown)
[2] = target: T2, rat M1 wild-type muscarinic acetylcholine receptor (Rattus norvegicus, UniProt P08482); conditions: naïve CHO rM1 cells
[3] = target: T2, rat M1 wild-type muscarinic acetylcholine receptor; assay: cell-based
[4] = target: T1, rat M1 mutant^123 muscarinic acetylcholine receptor; conditions: read-out: KD of [3H]NMS binding after xanomeline pretreatment
[5] = target: T2, rat M1 wild-type muscarinic acetylcholine receptor; assay: cell-based; conditions: KD of [3H]NMS binding after xanomeline pretreatment, washout

Row | SMILES | PI response [1] | Emax, maximal response [2] [dpm] | EC50 [3] [nM] | Kd [4] | Kd ([5]; 3 µM xanomeline 1 h) [nM] | Kd ([5]; 3 µM xanomeline 1 h, 23 h wait) [nM] | Kd ([5]; 3 µM xanomeline 24 h) [nM]
1 | C[N+](C)(C)CCOC(N)=O [carbachol] | did not produce a significant PI response | 23000±6100 | – | – | – | – | –
2 | CCCCCCOc1nsnc1C1=CCCN(C)C1 [xanomeline, 3-[3-hexyloxy-1,2,5-thiadiazo-4-yl]-1,2,5,6-tetrahydro-1-methylpyridine] | – | – | 39.8 | 0.42 nM and 0.26 nM and 0.49 nM | 0.4 ± 0.04 | 0.3 ± 0.04 | 0.6 ± 0.12

Where “and” joins values, the source holds several entries; their conditions need not be identical. Identical values can stand only once.
